Results: US8906672B2, “Gradient injection for biosensing” (Flir Systems, Inc., priority 2007, dated 2014)

Target: anti-IL-2 antibody
Experiment: SPR biosensor sigmoidal gradient injection of IL-2 over a surface coated with anti-IL-2 antibody, kinetic model fit
Format: binding
Conditions: single sigmoidal gradient injection, 125 μL at 25 μL/min
Source text: An example of one type of algorithm for determining kinetic constants is the conventional two-compartment interaction model given by the following set of differential equations. These equations are solved by numerical integration, or by finding an exact analytical solution, and then applying non-linear curve fitting to find the optimum parameter values. A=Conc A0=0 dA/dt=kt*(Conc−A)−(ka*A*B−kd*AB) B0=Rmax dB/dt=−(ka*A*B−kd*AB) AB0=0 dAB/dt=(ka*A*B−kd*AB) Total response: AB+RI where A=analyte concentration at surface
Next will be described the application of the invention as applied to kinetic analysis of the interaction of IL-2 with anti-IL2 antibody immobilized on the sensing surface. A sucrose gradient is prepared and injected, which gradient is of known refractive index using the same gradient preparation and injection parameters as are to be used for the actual analyte gradient injection. The optical biosensor responds to the changing bulk refractive index along the gradient giving a typical sigmoidal response curve 30 as shown in FIG. 5. The sigmoidal model [i.e. G=Rhi−((Rhi−Rlo)/(1+(t/A)^B))] is fitted to this curve 32 as shown by curve 34 in FIG. 7. All parameters are obtained from the model fit giving Rhi=1.016, Rlo=−0.2271, A=77.75 and B=0.009097. Thus the function G now defines the exact gradient profile for the gradient injection and is used to define the concentration of analyte in an analyte gradient prepared and injected in the same way. The two-compartment model as defined earlier is then fitted. Alternatively a simple model may be fitted as mass transport limitation is not as significant when a non-steady state concentration of analyte is present at the sensing surface. Therefore the simple model can be written as follows. […]
The experimental binding response curve shown in FIG. 8 is for the injection of a sigmoidal gradient of interleukin 2 (IL-2) over a surface coated with anti-IL-2 antibody (i.e. ligand). […] These values are in agreement with interaction constants determined by conventional kinetic analysis employing multiple fixed concentration injections.

- KD (dissociation affinity constant = kd/ka) (KD = kd/ka): 5 nM
- kd (dissociation rate constant) (dissociation about 400 seconds, fitted model): 0.0016 s⁻¹
Substance: interleukin 2 [IL-2]
- ka (association rate constant) (immobilized anti-IL-2 antibody as ligand, fitted model): 320000 M⁻¹ s⁻¹
